Reference: PubChem BioAssay (NCI)
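A five-concentration, 48-hour dose response in 96-well plates underlies each endpoint, interpolated linearly between surrounding concentrations. GI50 is the concentration that inhibits growth by half. Definition used: TGI = concentration required for complete inhibition of growth.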

Tests used:
Assay in all cases: DTP human tumour cell line panel, 48 h
[1] = tested on: 786-0 renal
[2] = tested on: A498 renal
[3] = tested on: A549 NSCLC
[4] = tested on: ACHN renal
[5] = tested on: BT-549 breast
[6] = tested on: CAKI-1 renal
[7] = tested on: CCRF-CEM leukemia
[8] = tested on: COLO 205 colon
[9] = tested on: DU-145 prostate
[10] = tested on: EKVX NSCLC
[11] = tested on: HCT-116 colon
[12] = tested on: HCT-15 colon
[13] = tested on: HL-60(TB) leukemia
[14] = tested on: HOP-62 NSCLC
[15] = tested on: HOP-92 NSCLC
[16] = tested on: HS 578T breast
[17] = tested on: HT29 colon
[18] = tested on: IGROV1 ovarian
[19] = tested on: K-562 leukemia
[20] = tested on: KM12 colon
[21] = tested on: LOX IMVI melanoma
[22] = tested on: M14 melanoma
[23] = tested on: MALME-3M melanoma
[24] = tested on: MCF7 breast
[25] = tested on: MDA-MB-231 breast
[26] = tested on: MDA-MB-435
[27] = tested on: MDA-N
[28] = tested on: MOLT-4 leukemia
[29] = tested on: NCI-H23 lung
[30] = tested on: NCI-H322M lung
[31] = tested on: NCI-H460 lung
[32] = tested on: NCI-H522 lung
[33] = tested on: NCI/ADR-RES ovarian
[34] = tested on: OVCAR-3 ovarian
[35] = tested on: OVCAR-4 ovarian
[36] = tested on: OVCAR-5 ovarian
[37] = tested on: OVCAR-8 ovarian
[38] = tested on: PC-3 prostate
[39] = tested on: RPMI-8226 leukemia
[40] = tested on: RXF 393 renal
[41] = tested on: SF-268 CNS
[42] = tested on: SF-295 CNS
[43] = tested on: SF-539 CNS
[44] = tested on: SK-MEL-2 melanoma
[45] = tested on: SK-MEL-28 melanoma
[46] = tested on: SK-MEL-5 melanoma
[47] = tested on: SK-OV-3 ovarian
[48] = tested on: SN12C renal
[49] = tested on: SNB-19 CNS
[50] = tested on: SNB-75 CNS
[51] = tested on: SR leukemia
[52] = tested on: SW-620 colon
[53] = tested on: T-47D breast
[54] = tested on: TK-10 renal
[55] = tested on: U251 CNS
[56] = tested on: UACC-257 melanoma
[57] = tested on: UACC-62 melanoma
[58] = tested on: UO-31 renal

## Cc1ccc([N+](=O)[O-])c(C[N+](C)(CCCl)CCCl)c1
[1]
  TGI: 57.8 µM
[2]
  TGI: 51.4 µM
[3]
  TGI: 68.4 µM
[4]
  GI50: 6.09 µM
  TGI: 21.8 µM
[5]
  TGI: 67.9 µM
[6]
  TGI: 33.4 µM
[7]
  TGI: 52.2 µM
[8]
  TGI: 34.5 µM
[9]
  TGI: 26.2 µM
[10]
  TGI: 48.8 µM
[11]
  TGI: 53.5 µM
[12]
  TGI: 41.7 µM
[13]
  TGI: 44.4 µM
[14]
  TGI: 80.1 µM
[15]
  TGI: 69.4 µM
[16]
  TGI: > 100 µM
[17]
  TGI: > 100 µM
[18]
  TGI: 64.9 µM
[19]
  TGI: 61.2 µM
[20]
  TGI: 36.6 µM
[21]
  TGI: 83.4 µM
[22]
  TGI: 39.7 µM
[23]
  TGI: 30.4 µM
[24]
  TGI: 21.5 µM
[25]
  TGI: 93.9 µM
[26]
  TGI: 22.2 µM
[27]
  TGI: 28.1 µM
[28]
  TGI: 49.6 µM
[29]
  TGI: 51.4 µM
[30]
  TGI: 76.3 µM
[31]
  TGI: 62.3 µM
[32]
  TGI: 59.3 µM
[33]
  TGI: 66.4 µM
[34]
  TGI: 48.3 µM
[35]
  TGI: 27.7 µM
[36]
  TGI: > 100 µM
[37]
  TGI: > 100 µM
[38]
  TGI: 75.4 µM
[39]
  GI50: 7.39 µM
  TGI: 33 µM
[40]
  GI50: 11.3 µM
  TGI: 30.6 µM
[41]
  GI50: 34.3 µM
  TGI: > 100 µM
[42]
  TGI: 82.2 µM
[43]
  TGI: 92 µM
[44]
  TGI: > 100 µM
[45]
  TGI: 89.5 µM
[46]
  GI50: 10.5 µM
  TGI: 22.2 µM
[47]
  GI50: 37.1 µM
  TGI: > 100 µM
[48]
  GI50: 11.5 µM
  TGI: 47.8 µM
[49]
  TGI: 72.4 µM
[50]
  TGI: 56.7 µM
[51]
  TGI: 21.3 µM
[52]
  TGI: 78.7 µM
[53]
  TGI: 35.6 µM
[54]
  TGI: 95.6 µM
[55]
  TGI: 65.4 µM
[56]
  TGI: 30.2 µM
[57]
  TGI: 29.4 µM
[58]
  TGI: 65.2 µM
